According to US12344626B2, “Pharmaceutical compounds and therapeutic methods” (RUTGERS, THE STATE UNIVERSITY OF NEW JERSEY, priority 2019, dated 2025):

Conditions: 44 targets listed in the 3rd table; COX1, COX2 and 5-HT2B positive

Zn[(E)-2-(1-(4-(2-methoxyethoxy)pyridin-2-yl)ethylidene)-N,N-dimethylhydrazine-1-carbothioamide]2 [ZN-8]
Positive hits in the CEREP-44 Safety Screen: The only positive hits were
